Laboratory results: patent US20050203174A1, “Combination therapies using leptomycin B” (Kosan Biosciences, Inc., priority 2004, published 2005)

Tested on: colon cancer cell line DLD-1
Assay: Cell viability assay (CellTiter-Glo) and combination effect analysis of leptomycin B plus co-agent
Format: cell-based, Human
Details: combination with leptomycin B, DLD-1 cells, average CI over fraction affected 0.2 to 0.9; for Combination Index, LMB First: 24 hours of LMB, then drug added and incubated for 48 hours; for Combination Index, Co-Agent First: drug alone for 24 hours followed by addition of LMB for 48 hours; for Combination Index, Simultaneous: simultaneous exposure to LMB and drug for 72 hours, constant ratio of IC50s
Experimental: The efficacy of a combination of leptomycin B and specific chemotherapeutic co-agents was determined. The additive, synergistic, or antagonistic effect of the combination of leptomycin B and a co-agent was calculated for each administration regimen using Calcusyn software (Biosoft, Cambridge, United Kingdom). This software calculates a combination index using the following algorithm: CI=[D]1/[Dx]1+[D]2/[Dx]2 where • CI is the combination index; • [D]1 and [D]2 are the concentrations of the two agents being tested (i.e., LMB and the co-agent) that, in combination provide a response of x % in the assay; and • [Dx]1 and [Dx]2 are the concentrations of the two agents that, when used alone, produce a response of x % in the assay.
A CI value of one means the combined effect of the two agents is additive. A CI value of less than one means that the two agents act synergistically. A CI value of greater than one means that the two agents act antagonistically.
The area under the curve where the fraction affected of cells (FA) ranged from 0.2 to 0.9 was calculated, to generate average CI values as shown in Table 1 for colon cancer cell line DLD-1.
Human colon adenocarcinoma cell line, DLD-1, was obtained from American Type Culture Collection (Manassas, Va.). […] Leptomycin B was produced by fermentation of a high producing isolate from Streptomyces sp. […] LMB is also available from commercial sources, such as Sigma-Aldrich. Other anti-cancer agents were either purchased commercially (e.g., from Sigma Chemical Co. (St. Louis, Mo.) or from Sequoia Research Products (Oxford, UK)).
Cells were seeded in duplicate in 96-well microtiter plates at a density of 4,000 cells per well and allowed to attach overnight. Cells were treated with LMB and the corresponding cytotoxic drug at varying concentrations, ranging from 0.5 picomolar (“pM”) to 50 micromolar (“μM”), for 3 days. Cell viability was determined using the CellTiter-Glo luminescent cell viability assay (Promega). For the drug combination assay, cells were seeded in duplicate in 96-well plates (4,000 cells/well). […] Based on the IC50 values of each individual drug, combined drug treatment was designed at constant ratios of two drugs, i.e., equivalent to the ratio of their IC50. Three treatment schedules were used: The first schedule used simultaneous exposure to both LMB and drug for 72 hours. In the second schedule, the cells were exposed to 24 hours of LMB. The drug was then added to the cells and incubated for 48 hours. In the third schedule, cells were exposed to the drug alone for 24 hours followed by addition of LMB for 48 hours. Cell viability was determined by the CellTiter-Glo luminescent cell viability assay. Synergism, additivity, or antagonism was determined by median effect analysis using the combination index (CI) calculated using Calcusyn (Biosoft, Cambridge, UK), as described above.

| Compound | Combination Index, LMB First | Combination Index, Co-Agent First | Combination Index, Simultaneous |
| --- | --- | --- | --- |
| 2-fluorovidarabine [Fludarabine] | 0.70 ± 0.13 | 0.94 ± 0.003 | 1.10 ± 0.05 |
| CO[C@@]12[C@H](COC(N)=O)C3=C(C(=O)C(C)=C(N)C3=O)N1C[C@@H]1N[C@@H]12 [Mitomycin C, mitomycin] | 1.04 ± 0.01 | 0.85 ± 0.02 | 1.04 ± 0.05 |
| bleomycin | 0.78 ± 0.16 | 0.71 ± 0.04 | 1.41 ± 0.39 |
